Results reported in BindingDB's records for patent US11312688 (Sumitomo Dainippon Pharma, 2022).

Chains of the proteins cited; added tags and fusions are not shown. Lines headed by an entry give the natural chain unless they say otherwise; changes in a name come on top.
UniProt P31645, whole entry: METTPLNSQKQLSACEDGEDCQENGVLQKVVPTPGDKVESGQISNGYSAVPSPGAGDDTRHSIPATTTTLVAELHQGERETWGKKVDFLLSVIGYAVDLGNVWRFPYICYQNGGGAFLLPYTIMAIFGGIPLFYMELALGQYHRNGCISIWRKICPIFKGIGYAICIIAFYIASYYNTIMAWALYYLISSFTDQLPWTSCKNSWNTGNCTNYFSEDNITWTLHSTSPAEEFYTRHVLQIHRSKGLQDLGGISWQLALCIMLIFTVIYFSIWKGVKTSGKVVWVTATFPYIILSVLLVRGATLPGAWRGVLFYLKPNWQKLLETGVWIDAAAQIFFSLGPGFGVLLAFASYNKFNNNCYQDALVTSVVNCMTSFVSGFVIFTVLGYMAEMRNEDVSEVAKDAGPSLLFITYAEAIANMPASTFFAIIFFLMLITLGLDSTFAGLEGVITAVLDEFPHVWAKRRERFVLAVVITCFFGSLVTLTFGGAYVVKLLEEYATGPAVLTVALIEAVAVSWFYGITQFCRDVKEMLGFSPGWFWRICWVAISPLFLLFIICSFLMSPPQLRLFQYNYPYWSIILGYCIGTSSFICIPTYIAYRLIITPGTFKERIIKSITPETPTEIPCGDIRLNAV
UniProt P28335: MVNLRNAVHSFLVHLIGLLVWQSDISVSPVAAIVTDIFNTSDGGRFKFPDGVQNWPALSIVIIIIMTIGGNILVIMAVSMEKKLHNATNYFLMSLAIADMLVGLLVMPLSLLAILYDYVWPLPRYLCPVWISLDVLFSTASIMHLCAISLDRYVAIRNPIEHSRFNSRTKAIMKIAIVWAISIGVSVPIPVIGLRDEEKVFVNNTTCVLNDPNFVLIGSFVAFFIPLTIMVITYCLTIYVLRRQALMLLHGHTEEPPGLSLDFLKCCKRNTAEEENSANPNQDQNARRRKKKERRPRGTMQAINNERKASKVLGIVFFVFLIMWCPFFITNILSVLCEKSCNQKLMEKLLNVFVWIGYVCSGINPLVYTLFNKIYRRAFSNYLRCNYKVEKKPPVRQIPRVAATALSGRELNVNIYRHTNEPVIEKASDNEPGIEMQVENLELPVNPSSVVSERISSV

Legend:
[1] = target: Sodium-dependent serotonin transporter (Homo sapiens, UniProt P31645)
[2] = target: 5-hydroxytryptamine receptor 2C (Homo sapiens, UniProt P28335)

## CCC(CC)n1nc(CNC)cc1OCc1cc(Cl)ccc1F [US11312688, Example 256]
[1]
  Ki: 1.6 nM
[2]
  Ki: 12 nM
